Measured values published in US7186797B2, “Polypeptide conjugates with extended circulating half-lives” (Epix Pharmaceuticals, Inc., priority 2001, dated 2007).

Assays:
[1] = unconjugated polypeptide drug, background statement; cited from earlier work
[2] = rabbits, subcutaneous injection, soluble monocomponent insulin; T. Kasama et al. 1980; cited from earlier work
[3] = rabbit plasma pharmacokinetic study with 125I-labeled insulin and conjugates, HPLC speciation; type: in vivo, white New Zealand rabbits
[4] = rabbit, n=1, 100 μg injected, two compartment/bolus injection fit

Substance: Insulin
- t1/2 [1]: 5 min
- biological half-life [2]: 5.50±0.49 minutes
- persistence in plasma (in words) ([3]; rabbit plasma, HPLC speciation of 125I): barely detectable after 1 hr
- A (fit parameter) [3, 4]: 220 µg/L
- B (fit parameter) [3, 4]: 30 µg/L
- Cmax [3, 4]: 250 ng/mL
- Vss [3, 4]: 0.62 L/kg
- α Half-Life [3, 4]: 4.2 min
- β Half-Life [3, 4]: 100 min
- Vss ([3]; rabbit, n=1, 100 μg injected, two compartment/bolus injection fit, listed as insulin): 0.6 L/kg
- AUC Fold Increase ([3]; rabbit, relative to insulin): 1
